# Measured affinities in a library of Ab-91 heavy chain variants

Reference: Engelhart et al. 2022, doi:10.1038/s41597-022-01779-4. File: FLAb, binding data.

Antigen: PDVDLGDISGINAS, a 14-residue peptide of the SARS-CoV-2 spike HR2 region.

Parent scFv Ab-91: VL joined to VH by a 15-residue (Gly4Ser)3 linker. Changes lie in the heavy chain CDRs alone.
VL: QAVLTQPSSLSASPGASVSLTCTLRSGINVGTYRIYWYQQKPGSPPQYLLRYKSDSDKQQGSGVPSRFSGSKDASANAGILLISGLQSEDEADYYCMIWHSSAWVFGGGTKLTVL
VH: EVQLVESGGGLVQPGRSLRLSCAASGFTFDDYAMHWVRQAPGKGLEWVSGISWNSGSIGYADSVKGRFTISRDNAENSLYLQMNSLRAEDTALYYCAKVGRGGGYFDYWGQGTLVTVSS

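The starting antibody came from a phage panning campaign against this peptide. AAYL51 was designed without a model: most single CDR substitutions and a random sample of double and triple ones. The scFvs were displayed on barcoded MATa yeast, the peptide on MATalpha yeast. Mating (16 h, 30 °C) was followed by selection of diploids and sequencing of their barcodes. Scores were corrected for input abundance and mapped to Kd with protein pairs of known affinity run in the same pool. Mating was done three times.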

Variants are written as CDR1, CDR2 and CDR3 of the heavy chain (limits as in the source). Parent: GFTFDDYAMH, GISWNSGSIGYADSVK, VGRGGGYFDY.
Scale: log10 of Kd in nM, estimated from mating counts; low values are strong binders.
Averages over replicates are reported, and they cover detected replicates only.
"no signal" means that the variant was in the library but no mating with the target was seen in any replicate; the authors take this as a sign of poor binding, and no number exists.
For reference, the parent read 1.86 as the reference entry and 0.88 as a member of this library.
As a blank, each scFv also met three strains without target: over library AAYL51, 21% of these pairings were detected, typically at 4.54 and seldom below 3.26.

| CDR-H1 | CDR-H2 | CDR-H3 | log10 Kd (nM), mean | replicates with signal |
|---|---|---|---|---|
| GFTFDDYANH | GISWNDGSIGYADSVK | SGRGGGYFDY | 4.77 | 2/3 |
| GFLFDDYLMH | GISWNSGSIGYADSVP | VGRGGGYFDY | no signal | 0/3 |
| GFTFDDGAMH | GISWNSGSIGYADSVK | VGRPKGYFDY | no signal | 0/3 |
| GDTFDDPAMH | GISWGSGSIGYADSVK | VGRGGGYFDY | no signal | 0/3 |
| RFTFDDYAMH | GISWNSGSIGYEDSVK | VGRGGGYFEY | 4.22 | 1/3 |
| GFTFDDYAMH | GIDVNSGSIGYADTVK | VGRGGGYFDY | no signal | 0/3 |
| GFTFDDYARH | GISWNSGSIGYADSVV | VGRGGGYIDY | 4.79 | 1/3 |
| GFTFDDYTMH | GISWNSGSIGYAYSVK | VMRGGGYFDY | no signal | 0/3 |
| GFTDDDYAMH | GISWNSGSIGYADWVK | VGRGGGYFKY | 4.68 | 2/3 |
| GFTFDDYNMH | GISWNSFFIGYADSVK | VGRGGGYFDY | no signal | 0/3 |
| GFTFDWYAMH | GISWNSGSIGYADSVK | VGRGGGYFDQ | 1.60 | 3/3 |
| GFTFDDYAMH | GINWNSGSIGYADSAK | VWRGGGYFDY | 5.38 | 1/3 |
| GFTFDDYAME | GISWNSGSIGYADSVK | VRRGGVYFDY | 5.05 | 3/3 |
| GFTGDDYAMH | GISWNSGSIGYADSVK | VGRGGGDFDS | no signal | 0/3 |
| GFTFDDYAMH | GISWNSGSIGYADSVK | VYRGGGYHDY | no signal | 0/3 |
| GFRFDDYAMH | GKSWNSGSIGYADSVK | VGRGGGYFDY | no signal | 0/3 |
| GFTFDDYAMH | GISWNSGSIGGAISVK | VKRGGGYFDY | no signal | 0/3 |
| GFTFTDYAMH | GISLNSKSIGYADSVK | VGRGGGYFDY | 1.71 | 3/3 |
| GFTFDDYAMH | DDSWNSGSIGYADSVK | VGRGGGYFDY | no signal | 0/3 |
| GPTFDDYRMH | GISWNSGSIGYADSVK | VGYGGGYFDY | 4.94 | 2/3 |
| GFSFDDYANH | GISVNSGSIGYADSVK | VGRGGGYFDY | 3.95 | 1/3 |
| GFTFDDYAMH | GISWNSGSIGYVDLVK | VGRGKGYFDY | no signal | 0/3 |
| GFDFDDYAMH | GFSWNSGSIGYADSEK | VGRGGGYFDY | no signal | 0/3 |
| GFTPDDYAMH | GISPNSGSIGYADSLK | VGRGGGYFDY | 4.11 | 2/3 |
| GFTFDDYVMH | GISWNIHSIGYADSVK | VGRGGGYFDY | 5.56 | 1/3 |
| GFTFDTYAMH | GISWNSGSIGYADSVK | VGRGMGYFWY | no signal | 0/3 |
| GFTFDWYADH | CISWNSGSIGYADSVK | VGRGGGYFDY | no signal | 0/3 |
| GFTFDDYAMH | GISKESGSIGYADSVK | VGRGGGYFDC | no signal | 0/3 |
| GFTFDDYLMH | GISWNVGSIGYADSVK | VGFGGGYFDY | 4.55 | 3/3 |
| GFTFDDYAMH | GISWNSGSIGFADSVG | VGRMGGYFDY | 5.11 | 2/3 |
| GFTFDDYAMH | GISWNSQSIGYADSVK | VGRGTGYFHY | 0.89 | 3/3 |
| GFTFDDYAMH | GISWNSGSIGYADSRK | VGRGGGDFPY | no signal | 0/3 |
| GFTFDDYHMH | GGSWNSGSITYADSVK | VGRGGGYFDY | 5.18 | 2/3 |
| TFHFDDYAMH | GISWNSGSIGYADSVK | KGRGGGYFDY | no signal | 0/3 |
| GFTFDDYAMH | GCSWNSGSDGYADSVK | VGRGGGSFDY | 4.81 | 3/3 |
| GFTFDDYAEH | GISWDSGSIGYADSVK | VGRGGGYFDY | 4.41 | 2/3 |
| GFHFDDYAMH | GISWIEGSIGYADSVK | VGRGGGYFDY | 1.70 | 3/3 |
| GFTFDDYAMH | GISWNSGSIGYADSVK | WGPGGPYFDY | 6.05 | 1/3 |
| GFTFDDYIMH | GISWNSGSIGYADWVK | VGRGGGYFDD | 4.24 | 1/3 |
| GFVFDYYAMH | GISWNSGSIGYADSVK | VGRGGGYFDY | 4.57 | 1/3 |
| GFTFDDYAEH | GISWGSGSIGYAMSVK | VGRGGGYFDY | 5.24 | 1/3 |
| GFTFDDYAMH | GISWNSGSIGYADSVK | DCRYGGYFDY | 4.71 | 2/3 |
| GFTFDDYAMH | GISWNSGSIGYADSVK | VGEGGGYLDY | 5.29 | 1/3 |
| GWTFDDYAMH | GISWNSGSIMYADSVK | VGRGGGSFDY | 4.38 | 1/3 |
| GFTFDDYAAH | GISWNSGSINYIDSVK | VGRGGGYFDY | 3.88 | 1/3 |
| EFTFDDYAMH | GISWNSTSIGYADSVK | VGRGGGVFDY | 3.99 | 1/3 |
| GFTFDKYSMH | GISWNSGSIGYADEVK | VGRGGGYFDY | 0.97 | 3/3 |
| GFTADDYAMQ | GISWNSGSIGYADSVK | VGRGGRYFDY | 5.44 | 3/3 |
| GGTFDDYAMH | GISWNSGSIGYADSVP | VGRGGGYFDY | 4.78 | 1/3 |

A selection of 5 entries from above:

| CDR-H1 | CDR-H2 | CDR-H3 | log10 Kd (nM), mean | replicates with signal |
|---|---|---|---|---|
| GFTFDDYAMH | DDSWNSGSIGYADSVK | VGRGGGYFDY | no signal | 0/3 |
| GFLFDDYLMH | GISWNSGSIGYADSVP | VGRGGGYFDY | no signal | 0/3 |
| GFTFDDYLMH | GISWNVGSIGYADSVK | VGFGGGYFDY | 4.55 | 3/3 |
| GFTFDDYAMH | GISWNSGSIGYADSVK | VYRGGGYHDY | no signal | 0/3 |
| RFTFDDYAMH | GISWNSGSIGYEDSVK | VGRGGGYFEY | 4.22 | 1/3 |